Reference: patent publication US20040072746A1, “Inhibitors of monocarboxylate transport” (priority 2001, published 2004)

System: K562 cells
Experiment: cells
Details: Homo sapiens, K562, 48 h, read-out: mean pIA50, reduction in OD570-OD600 (converted)

CC(C)Cn1c(=O)n(C)c(=O)c2c(SCCCO)c(Cc3cccc4ccccc34)sc21 [Ligand 1, 5-[(3-hydroxypropyl)thio]-3-methyl-1-(2-methylpropyl)-6-(1-napthalenylmethyl)thieno[2,3-d]pyrimidine-2,4(1H,3H)-dione]
IC50: 2 nM
